From PubChem BioAssay AID1259332 (Broad Institute, 2017) come the findings set out here.

Some results for these compounds are left out of this collection, so the calls shown say nothing about other tests. Active and inactive are the calls of the source. How the calls were made is not given here.

The test system of this experiment is B cell line, CD40 signaling inhibition reporter. Nature of the experiment: inhibitors of CD40 signaling, dose response, B cell lineage (AID 1259332).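 Further: cells stimulated with CD40 ligand tCD40L.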

For `C=C(C)C#CC(O)(C(=O)OC1CCN(C)CC1)c1ccccc1` (stereo unspecified), the AC50 is inactive: > 7 µM.

What is called AC50 is the concentration giving half of the maximal activity seen.
